Measured values reported in patent US9176117B2, “Macrophage hazardous material detection” (dated 2015).

System: Sentinel Cells (SC), stationary macrophages
Test: Sentinel Cell responses to energetic materials by real-time multi-label light microscopy (DIC, H33342 DNA, MitoTracker, ER-Tracker)

Compound: O=[N+]([O-])OCC(CO[N+](=O)[O-])(CO[N+](=O)[O-])CO[N+](=O)[O-]
- range of concentrations of EM in solution to which SC respond: ppb and ppt
- changes in membrane structure compared to control (PETN at 50 nm in solution, FIG. 3B): significant membrane filigree and membrane blebs
- observed Sentinel Cell responses (flower plot) (PETN at 50 nm in solution, FIG. 3C): increase in cytoplasmic NO levels, marked increases in nuclear dsDNA, induction of chromosome condensation, unscheduled DNA synthesis, induction of filigree deformations, fragility in cell membranes, and cell pairs observed at a low percentage

Compound: O=[N+]([O-])N1CN([N+](=O)[O-])CN([N+](=O)[O-])C1
- range of concentrations of EM in solution to which SC respond: ppb and ppt
- other observed Sentinel Cell responses (RDX 50 nm in solution): chromosome condensation; unscheduled dsDNA synthesis; increased nuclear dsDNA; arborized nuclei; large changes in cell morphology; distended mitochondria; loss of nuclear dsDNA; and leakage of dsDNA to cytosol and extracellular space

Compound: O=[N+]([O-])N1CN([N+](=O)[O-])CN([N+](=O)[O-])CN([N+](=O)[O-])C1
- range of concentrations of EM in solution to which SC respond: ppb and ppt
- primary Sentinel Cell responses observed (HMX at 0.5 nm in solution): loss of nuclear dsDNA to cytoplasmic space, then to extracellular space; increase in extra-nuclear dsDNA; arborized nuclei and cell morphologies; ell pairs observed (low percentage)
- lower level of EM giving response types similar to RDX (HMX at 0.5 nm versus RDX 50 nm in solution): 100 fold

Compound: O=[N+]([O-])OCC(CO[N+](=O)[O-])O[N+](=O)[O-]
- primary Sentinel Cell responses observed (TNG at 0.5 nm in solution, FIG. 8): pronounced NOS activity, significant increases in cell size and membrane surface, pronounced hunting behavior, and levels of apoptosis

Compound: Cc1c([N+](=O)[O-])cc([N+](=O)[O-])cc1[N+](=O)[O-]
- specific Sentinel Cell responses (TNT at 50 nm in solution): micronuclei and apoptotic nuclear dsDNA arrangement/loss

Some compounds may have been tested in ways that are not shown here.
